From patent publication US9364443B2, “Compositions and methods for drug delivery” (BAXTER INTERNATIONAL, INC., priority 2008, dated 2016)

Legend:
[1] = Zeta potential and size of SPIO nanoparticles; assay type: physicochemical; conditions: HEPES buffer pH 7.4
Procedure: To test the effect of size and dextran coating on cellular uptake, SPIO coated with 100 kDa dextran with sizes ranging from 62 to 394 nm were incubated with human monocytes for 1 hour at 37° C. (FIG. 5A). […] After 1 hour-oxidation, SPIO was conjugated with different concentrations of IgG (0.5, 1, 2 and 4 mg/ml) and each conjugate IgG-SPIO complex was incubated with human monocytes for 0.5 and 1 hr at 37° C. […] Nonetheless, the steric barrier generated by the dextran surrounding the iron core of NP could have prevented adsorption of IgG. […] (FIG. 5D). […] The results support the idea that similar mechanisms for iron uptake were operative amongst both cell types. In order to study the mechanism of internalization, IgG-SPIO and free IgG, at a concentration of 1 mg/ml, were co-incubated with human monocytes (FIG. 5F). […] To test that possibility, human serum albumin (HSA) was covalently attached to SPIO using the identical oxidation/reduction procedure as IgG conjugation. […] In order to confirm the notion that particle uptake was independent of the Fc receptor we performed blocking studies. […] This could be due to the fact that HSA modified the conjugated SPIO itself. To test the latter possibility, physical-chemical properties of SPIO including zeta potential and size measurements of the nanoparticles were performed in HEPES buffer at pH 7.4.

[2] = test system: human monocytes; assay: Iron uptake by human monocytes, colorimetric ferrozine assay; assay type: cell-based; conditions: covalent HSA conjugate

Substance: HSA-SPIO: human serum albumin covalently attached to SPIO by the same oxidation/reduction procedure
- effect of modification on particle size [1]: did not affect its size
- uptake versus SPIO [2]: significantly enhanced the uptake of SPIO
